# Sampled rows, rich in hits. Any-hit rate of the full collection: about 2.1%.
# UUG fidelity = modulators of yeast start codon fidelity, primary screen, whole organism, S. cerevisiae, single point, plate reader | AID 602363, 2012 | S. cerevisiae UUG-firefly luciferase reporter, luminescence/redox ratio | activity score, % at 18.7 µM | hit rate 0.13% among 350,000;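 active = replicate mean at a twofold rise or more, about +100% in these data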;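 also: firefly luciferase made from a UUG start codon reports start codon fidelity; reporter light over untreated wells divided by growth signal over untreated wells; some hits fall short of that in this replicate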
# PGC1a acetyl inh = lowers PGC1a acetylation signal in U2OS cells; inhibition, % at 15.6 µM; 350,000 tested, 0.17% active; AlphaScreen anti-acetyl-lysine; with virally co-expressed GCN5 acetyltransferase;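 active means every replicate shows inhibition of at least 40%; inconclusive means mean inhibition at least 40% but some replicate below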;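 further: 0% = neutral control wells and 100% = positive control wells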
# Wnt act = Wnt/beta-catenin pathway activation; Wnt/beta-catenin reporter cell assay, activator, plate reader; activation, % at 9.35 µM; 300,000 tested, 1.2% active; in the data active means activation above about 30%, passing the limit was not always enough; inconclusive means no clear call, values can overlap the other calls;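 further: 0% = neutral control wells and 100% = positive control wells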
# MITF act = MITF TRPM1 promoter activation in melanoma cells; SK-MEL-5 TRPM1-promoter luciferase, 24 h; % of positive control, neutral wells = 0; activation, % at 12.5 µM; 300,000 tested, 0.75% active; AID 588334;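 active means mean activation of at least 80% with every replicate also reaching 80%; inconclusive means mean reaches 80% but some replicate falls short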;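 further: 0% = neutral control wells and 100% = parthenolide positive control wells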
# miR-122 sensor = inhibitors of miR-122 in Huh7 cells; activation (reporter increase), % at 12.5 µM; 340,000 tested, 0.3% active; Huh7 miR-122 Renilla luciferase sensor, 48 h; neutral wells = 0, positive control = 100; AID 602342;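 active means mean replicate activation score at least 90 and every replicate individually at or above 90; inconclusive means only one of the two criteria met; inactive means neither criterion met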;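 further: higher luciferase means less miR-122 activity so hits act as miR-122 inhibitors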
# MITF TRPM1 inh = reduces MITF-dependent TRPM1 promoter luciferase signal; SK-MEL-5 TRPM1 promoter luciferase, 24 h; 330,000 tested, 0.83% active; inhibition, % at 12.5 µM;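 active means mean inhibition across replicates of 60% or more, whatever share of single replicates reaches that level; inconclusive means some that reach 60%, reason not given; inactive means mean inhibition across replicates below 60%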
# * = called active by the depositor; ? = inconclusive; nt = not tested or not shown; [ ] = dose if it differs, or a comment.
SMILES,UUG fidelity,PGC1a acetyl inh,Wnt act,MITF act,miR-122 sensor,MITF TRPM1 inh
CC(C)CN(C(=O)CCNC(=O)c1ccccc1Cl)C1CCS(=O)(=O)C1 (stereo not given),-22,1,32*,1,-6,-1
Cc1cccc(NC(=O)c2c(O)c3ccccc3[nH]c2=O)c1,-15,nt,41*,106*,-7,-96
Cc1ccc(S(=O)(=O)CC(CN2CCCCC2)N2CCCCC2)cc1 (stereo not given),nt,nt,-4,-69,nt,69*
O=S(=O)(CC(CN1CCCCC1)N1CCCCC1)c1ccc2ccccc2c1 (stereo not given),nt,15,-2,-74,nt,75*
O=S(=O)(CC(CN1CCOCC1)N1CCOCC1)c1ccccc1 (stereo not given),nt,nt,nt,-5,nt,6
C[C@@H]1CN([C@H](C)CO)C(=O)c2cc(NC(=O)Nc3ccc4c(c3)OCO4)ccc2O[C@@H](C)CCCCO[C@@H]1CN(C)S(=O)(=O)c1cn(C)cn1,10,-4,nt,nt,11[16.7 µM],nt
CC(=O)Nc1sc(C)c(C)c1C(=O)OCC(=O)N(CC(C)C)c1c(N)n(Cc2ccccc2)c(=O)[nH]c1=O,-5,-3,-20,-103,-1,103*
CC(C)CN(C(=O)COC(=O)C12CC3CC(CC(O)(C3)C1)C2)c1c(N)n(Cc2ccccc2)c(=O)[nH]c1=O,3,-8,-2,nt,-4,nt
COC(=O)c1c(C)[nH]c(C(=O)OCC(=O)N(CC(C)C)c2c(N)n(Cc3ccccc3)c(=O)[nH]c2=O)c1C,-5,nt,-7,1,nt,0
CC(C)CN(C(=O)COC(=O)C12CC3CC(CC(C3)C1)C2)c1c(N)n(Cc2ccccc2)c(=O)[nH]c1=O,16,nt,-1,-88,nt,88*
CN1CCN(C(=O)C[C@H]2CC[C@@H](NC(=O)Cc3ccccn3)[C@H](CO)O2)CC1,-11,0,nt,nt,10[16.7 µM],nt
COc1ccc(CCNC(=O)CN2C(=O)c3ccccc3C2=O)cc1,-32,8,nt,7,0,-5
CCOC(=O)C1(NC(=O)C2(NC(=O)CN3C(=O)c4ccccc4C3=O)CCCC2)CCCC1,-13,nt,47*,-2,-2,3
CNc1nc(-c2ccc3c(c2)CCN3C(=O)c2ccccc2C)cs1,nt,8,6,149*,nt,-145
COc1cc(OC)c2c(-c3cccc(/C=C/c4ccc(F)cc4)c3)cc(=O)oc2c1,-12,nt,-1,96*,nt,-99
COc1cc(OC)c2c(-c3cccc(-c4ccc(O)cc4)c3)cc(=O)oc2c1,-12,8,-1,-35,99*,36
COc1ccc(-c2cccc(-c3cc(=O)oc4cc(OC)cc(OC)c34)c2)cc1,-11,-21,-3,-66,104*,67*
COc1cc(OC)c2c(-c3cccc(-c4ccc(N(C)C)cc4)c3)cc(=O)oc2c1,-44,-9,-3,-54,97*,56
COc1cc(OC)c2c(C)cc(=O)oc2c1,-11,0,0,15,0,-12
COc1cc(OC)c2c(-c3cccc(-c4ccc(OC(F)(F)F)cc4)c3)cc(=O)oc2c1,-17,-2,-2,-4,-9,6
COc1cc(OC)c2c(-c3cccc(-c4cccc(C)c4)c3)cc(=O)oc2c1,-12,-60,-2,-28,5,27
C[C@@H](NC(=O)C[C@H]1CC[C@H](NC(=O)c2cccnc2)[C@H](CO)O1)c1ccccc1,nt,-11,nt,nt,0[16.7 µM],nt
COc1ccccc1-c1ccc2n(c1=O)C[C@@H]1[C@@H](CO)[C@H](C(=O)N[C@H](C)c3ccccc3)[C@H]2N1C,nt,nt,nt,nt,9[16.7 µM],nt
C[C@@H]1CN([C@@H](C)CO)C(=O)c2cc(NS(C)(=O)=O)ccc2O[C@H]1CN(C)C(=O)Nc1cccc2ccccc12,nt,-1,nt,nt,3[16.7 µM],nt
C[C@@H]1CN([C@@H](C)CO)C(=O)c2cc(NS(=O)(=O)c3ccc(F)cc3)ccc2O[C@@H](C)CCCCO[C@H]1CN(C)C(=O)c1ccncc1,-2,1,nt,nt,-1[16.7 µM],nt

# Already shown: an excerpt of the list.
SMILES,UUG fidelity,PGC1a acetyl inh,Wnt act,MITF act,miR-122 sensor,MITF TRPM1 inh
CN1CCN(C(=O)C[C@H]2CC[C@@H](NC(=O)Cc3ccccn3)[C@H](CO)O2)CC1,-11,0,nt,nt,10[16.7 µM],nt
COc1ccc(CCNC(=O)CN2C(=O)c3ccccc3C2=O)cc1,-32,8,nt,7,0,-5
CCOC(=O)C1(NC(=O)C2(NC(=O)CN3C(=O)c4ccccc4C3=O)CCCC2)CCCC1,-13,nt,47*,-2,-2,3
CNc1nc(-c2ccc3c(c2)CCN3C(=O)c2ccccc2C)cs1,nt,8,6,149*,nt,-145

# Remaining list, next part
SMILES,UUG fidelity,PGC1a acetyl inh,Wnt act,MITF act,miR-122 sensor,MITF TRPM1 inh
CCCC(=O)Nc1ccc2c(c1)C(=O)N(C)C[C@H](OC)[C@H](C)CN(C(=O)c1cnccn1)[C@H](C)CO2,3,6,nt,nt,0[16.7 µM],nt
C[C@@H]1CCCCO[C@H](CN(C)S(=O)(=O)c2cccs2)[C@H](C)CN([C@H](C)CO)C(=O)c2cc(NS(=O)(=O)c3ccc(Cl)cc3)ccc2O1,7,-26,nt,nt,-14[16.7 µM],nt
COc1cc(OC)c2c(-c3cccc(-c4ccc(CO)cc4)c3)cc(=O)oc2c1,15,nt,nt,-77,nt,77*
COc1ccc(-c2cccc(-c3cc(=O)oc4cc(OC)c(OC)c(OC)c34)c2)cc1,-28,-6,-1,-12,10,13
O=C(Nc1ccc(Cl)cc1)c1ccc(-c2ccccn2)s1,3,-3,39*,nt,4,-87
O=C(Nc1ccccn1)c1ccc(Br)s1,-38,7,0,nt,-7,-69
CCCNC(=O)NC[C@H]1[C@@H](c2ccc(C3=CCCC3)cc2)[C@H](CO)N1C(=O)CC,8,-7,nt,nt,36[16.7 µM],nt
CCCNC(=O)NC[C@@H]1[C@@H](c2ccc(C3=CCCC3)cc2)[C@@H](CO)N1C(=O)CC,14,4,nt,nt,143*[16.7 µM],nt
C[C@H]1CN([C@@H](C)CO)C(=O)c2cccc(NC(=O)Nc3ccc4c(c3)OCO4)c2O[C@H]1CN(C)C(=O)Nc1ccc2c(c1)OCO2,-3,-6,nt,nt,-12[16.7 µM],nt
C[C@@H]1CN([C@@H](C)CO)C(=O)Cc2cc(NC(=O)Nc3ccc4c(c3)OCO4)ccc2O[C@@H]1CN(C)C(=O)Nc1cccc2ccccc12,-3,-12,nt,nt,?,nt
C[C@@H]1CN([C@H](C)CO)C(=O)Cc2cc(NC(=O)Nc3cccc4ccccc34)ccc2O[C@@H]1CN(C)C(=O)NC1CCCCC1,10,-17,nt,nt,121*[16.7 µM],nt
C[C@H](CO)N1C[C@H](C)[C@H](CN(C)C(=O)Nc2cccc3ccccc23)Oc2ccc(NC(=O)Nc3cccc4ccccc34)cc2CC1=O,-15,7,nt,nt,-3[16.7 µM],nt
C[C@@H]1CN([C@H](C)CO)C(=O)c2cc(NC(=O)Cc3cn(C)c4ccccc34)ccc2O[C@@H]1CN(C)C(=O)Nc1ccccc1,-8,108*,nt,nt,-7[16.7 µM],nt
C[C@@H]1CN([C@H](C)CO)C(=O)Cc2cc(NC(=O)Nc3ccc4c(c3)OCO4)ccc2O[C@@H]1CN(C)C(=O)Nc1cccc2ccccc12,-11,-1,nt,nt,129*[16.7 µM],nt
C[C@@H]1CN([C@H](C)CO)C(=O)Cc2cc(NC(=O)Nc3cccc4ccccc34)ccc2O[C@@H]1CN(C)C(=O)Nc1cccc2ccccc12,-15,7,nt,nt,99*[16.7 µM],nt
COc1cccc(S(=O)(=O)N(C)C[C@H]2OCc3ccccc3-c3ccccc3C(=O)N([C@H](C)CO)C[C@@H]2C)c1,nt,-16,nt,nt,nt,nt
C[C@@H]1CCCCO[C@@H](CN(C)C(=O)Cc2ccccc2)[C@@H](C)CN([C@H](C)CO)C(=O)c2cc(NC(=O)CCCN(C)C)ccc2O1,-10,0,nt,nt,1[16.7 µM],nt
COc1ccc(C(=O)C=Cc2ccc3c(c2)OCO3)cc1OC,nt,nt,7,nt,nt,nt

# Quoted from the listing.
# COc1cc(OC)c2c(-c3cccc(/C=C/c4ccc(F)cc4)c3)cc(=O)oc2c1 | Wnt act: -1
# COc1cc(OC)c2c(-c3cccc(-c4ccc(O)cc4)c3)cc(=O)oc2c1 | UUG fidelity: -12

# Bioassay records: PubChem BioAssay, Broad Institute
